The data set can be described thus: Implantation of capsule on the sclera of rabbit's eye (fluorescence of hydatoid, fundus camera, tissue). In kind it is in vivo. The settings on record: 3 days after implantation. The protocol: A capsule (the collagen particle concentration of its porous PEG sheet: 500 mg/ml) packed with a PEG pellet of FA was implanted on the sclera of the eye of rabbits. One eye of each rabbit was used as a non-implantation control. The conjunctiva was incised 5 mm and the capsule was implanted therethrough into 2 to 15 mm of the corneal limbus. The capsule was fixed by suture. The conjunctiva was finally sutured to terminate the implantation. The hydatoid (100 μl) was collected every other week and the fluorescence intensity thereof was measured using a fluorescence plate reader. Using a fluorescence camera, the fluorochrome in the device implanted on the sclera and the distribution of the pigment slowly released were photographed. […] In FIG. 22, the fluorescences of the cell nucleus (blue fluorescence) and the model drug (green fluorescence) are observed. In FIG. 22, the mark * represents the position in which the PEG capsule was present. […] When the drug passes through RP, the drug is fed to RE. Because RP has a high barrier function, the pigment stops here and is concentrated.

Regarding FITC-Dextran 40 kDa [FD40], the tissue fluorescence distribution result is “strong fluorescence was observed in the sclera (SC) and the subretina (RP)”.

Source of the values: US9005651B2, “Sustained drug delivery system” (Tohoku University, priority 2009, dated 2015).
